For one molecule, T/Copt area results are on record in US20180185510A1, “ANTIBODY DRUG CONJUGATES OF KINESIN SPINDEL PROTEIN (KSP) INHIBITORS WITH ANTI-B7H3-ANTIBODIES” (BAYER PHARMA AKTIENGESELLSCHAFT, priority 2015, published 2018).

Common to all, as to assay type: in vivo, female NMRI-nude mice
Assay [1] has as its system A498 tumour model. Description: Activity of anti-B7H3 ADCs in A498 tumour model. Conditions: A498, 10 mg/kg, Q7dx3, i.v., D14. On the procedure:
(§1) The cell suspension is injected underneath the skin of the mouse.
(§2) Over a number of days, a tumour grows. Treatment is started after the tumour has established itself, approximately at a tumour size of 40 mm^2.
(§3) Standard treatment is three times in succession every fourth day. In the case of slow-growing tumours, treatment once a week is recommended. For a short-term assessment, it may also be suitable to employ a protocol where treatment occurs only once. However, treatment may also be continued, or may be followed by a second cycle of three treatment days at a later point in time.
(§4) As standard, 8 animals per treatment group are employed. In addition to the groups receiving the drugs, one group, as control group, is only treated with buffer, following the same scheme.
(§5) The tumour area is determined as length x width.
(§6) The tumour cells are inoculated subcutaneously into the side of female NMRI-nude mice (Janvier). At a tumour size of ˜40 mm^2, treatment takes place intravenously using the antibody drug conjugate. After the treatment, tumour growth is optionally monitored further.

The test system of assay [2] is Caki-2 tumour model. The experiment in a line: Activity of anti-B7H3 ADCs in Caki-2 tumour model. Conditions: Caki-2, 10 mg/kg, Q7dx4, i.v., D24. On the procedure:
as §1, §2, §3, §4, §5, §6

Assay [3] has as its system MCF-7 tumour model. The experiment in a line: Activity of anti-B7H3 ADCs in MCF-7 tumour model. The note with it: MCF-7, 10 mg/kg, Q7dx4, i.v., D24. On the procedure: as §1, §2, §3, §4, §5, §6

B1: Example 208L2 (conjugate)
heavy: QVQLQQPGAELVKPGASVKMSCKASGYTFTIYNVHWIKQTPGQGLEWMGTIFPGNGDTSYNQKFKDKATLTTDKSSKTAYMQLNSLTSEDSAVYYCARWDDGNVGFAHWGQGTLVTVSAASTKGPSVFPLAPSSKSTSGGTAALGCLVKDYFPEPVTVSWNSGALTSGVHTFPAVLQSSGLYSLSSVVTVPSSSLGTQTYICNVNHKPSNTKVDKKV[omitted - human IgG1 Fc]
light: DIQMTQSPASLSASVGETVTITCRASENINNYLTWFQQKQGKSPQLLVYHAKTLAEGVPSRFSGSGSGTQFSLKINSLQPEDFGSYYCQHHYGTPPTFGGGTKLEIKRTVAAPSVFIFPPSDEQLKSGTASVVCLLNNFYPREAKVQWKVDNALQSGNSQESVTEQDSKDSTYSLSSTLTLSKADYEKHKVYACEVTHQGLSSPVTKSFNRGEC
In the case of B1, the T/Copt area was 0.49 (D14) in assay [1], 0.65 (D24) in assay [2] and 0.67 (D24) in assay [3].
